Molecules are shown by their SMILES. Where a name gives a salt, the structure may show the parent alone. Read-outs that look alike come from different tables or passages of the source.

Amino acid sequences for entries named in this document (tags omitted). Chains listed by the source or under a name are the forms on record and can include a tag or linker.
UniProt P36544, with tags, fused parts or gaps L131G/Q139L/Y217F: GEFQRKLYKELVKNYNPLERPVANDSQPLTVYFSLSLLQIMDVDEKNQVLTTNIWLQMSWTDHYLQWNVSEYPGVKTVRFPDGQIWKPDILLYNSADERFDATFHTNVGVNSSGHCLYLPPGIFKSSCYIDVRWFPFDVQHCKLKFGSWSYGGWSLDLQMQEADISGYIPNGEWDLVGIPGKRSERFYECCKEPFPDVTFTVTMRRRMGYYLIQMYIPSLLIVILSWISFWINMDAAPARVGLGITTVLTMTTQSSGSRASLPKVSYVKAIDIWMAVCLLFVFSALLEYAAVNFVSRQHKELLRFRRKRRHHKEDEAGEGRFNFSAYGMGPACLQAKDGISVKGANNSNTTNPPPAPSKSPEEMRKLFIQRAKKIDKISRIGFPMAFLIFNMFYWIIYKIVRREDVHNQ

For the assay, the target named is α7^L131G, Q139L, Y217F-GlyR LGIC (Homo sapiens, UniProt P36544, L131G/Q139L/Y217F). Nature of the assay: Agonist potency at the modified chimeric LGIC. It is filed as cell-based.

In turn, `c1cnc2cc3c(cc2n1)[C@@H]1CNC[C@H]3C1` [varenicline, 6,10-Methano-6H-pyrazino[2,3-h][3]benzazepine, 7,8,9,10-tetrahydro-5,8,14-triazatetracyclo[10.3.1.02,11.04,9]hexadeca-2,4,6,8,10-pentaene tartrate salt] returned an EC50 of 1.6 ± 0.1 nM. Also, the concentration giving a half-maximal response (EC50) (read-out: EC50 of varenicline for α7^L131G, Q139L, Y217F-GlyR LGIC (m-α7-GlyR LGIC)) amounted to 1.6 nM.

Values taken from US20240390521A1, “CHIMERIC MODIFIED ION CHANNELS AND USES THEREOF FOR TREATMENT OF TRIGEMINAL NERVE DISORDERS” (Kriya Therapeutics, Inc., priority 2023, published 2024).
